Where two headings read alike, the source gives them in different places.

By UniProt entry, the sequences of proteins in these tests, tags left out. Where a name states a change or a piece, a line headed by the entry shows the natural chain unless it says otherwise.
UniProt P42338, whole entry: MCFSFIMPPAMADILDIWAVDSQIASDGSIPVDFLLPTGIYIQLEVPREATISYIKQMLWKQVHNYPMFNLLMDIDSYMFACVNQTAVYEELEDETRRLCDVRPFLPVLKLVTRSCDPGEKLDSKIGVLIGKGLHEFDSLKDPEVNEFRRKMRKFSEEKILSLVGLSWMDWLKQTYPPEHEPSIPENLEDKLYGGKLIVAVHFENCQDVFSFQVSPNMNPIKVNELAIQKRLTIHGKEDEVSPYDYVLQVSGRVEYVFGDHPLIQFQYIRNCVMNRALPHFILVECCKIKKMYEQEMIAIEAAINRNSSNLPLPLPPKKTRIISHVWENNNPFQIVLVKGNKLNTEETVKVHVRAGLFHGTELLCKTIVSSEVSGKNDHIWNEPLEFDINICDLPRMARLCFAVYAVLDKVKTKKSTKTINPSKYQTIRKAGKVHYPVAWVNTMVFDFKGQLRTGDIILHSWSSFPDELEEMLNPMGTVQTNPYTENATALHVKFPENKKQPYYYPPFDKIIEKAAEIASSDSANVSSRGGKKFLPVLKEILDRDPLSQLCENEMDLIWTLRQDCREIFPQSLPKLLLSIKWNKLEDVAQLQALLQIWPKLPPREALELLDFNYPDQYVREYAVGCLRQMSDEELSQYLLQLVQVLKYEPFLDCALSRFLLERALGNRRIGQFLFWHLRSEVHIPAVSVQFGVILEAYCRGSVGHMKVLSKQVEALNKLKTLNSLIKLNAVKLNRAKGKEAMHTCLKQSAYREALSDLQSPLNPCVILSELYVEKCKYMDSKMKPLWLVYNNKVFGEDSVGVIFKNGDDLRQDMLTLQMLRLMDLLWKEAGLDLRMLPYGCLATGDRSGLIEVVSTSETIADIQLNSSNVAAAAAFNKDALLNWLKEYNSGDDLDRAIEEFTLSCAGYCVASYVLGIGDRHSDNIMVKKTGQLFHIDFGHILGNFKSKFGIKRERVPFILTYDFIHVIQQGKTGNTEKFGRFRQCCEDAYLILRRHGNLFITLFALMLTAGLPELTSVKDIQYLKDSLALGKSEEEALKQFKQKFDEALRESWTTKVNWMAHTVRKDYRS
UniProt P42336, whole entry: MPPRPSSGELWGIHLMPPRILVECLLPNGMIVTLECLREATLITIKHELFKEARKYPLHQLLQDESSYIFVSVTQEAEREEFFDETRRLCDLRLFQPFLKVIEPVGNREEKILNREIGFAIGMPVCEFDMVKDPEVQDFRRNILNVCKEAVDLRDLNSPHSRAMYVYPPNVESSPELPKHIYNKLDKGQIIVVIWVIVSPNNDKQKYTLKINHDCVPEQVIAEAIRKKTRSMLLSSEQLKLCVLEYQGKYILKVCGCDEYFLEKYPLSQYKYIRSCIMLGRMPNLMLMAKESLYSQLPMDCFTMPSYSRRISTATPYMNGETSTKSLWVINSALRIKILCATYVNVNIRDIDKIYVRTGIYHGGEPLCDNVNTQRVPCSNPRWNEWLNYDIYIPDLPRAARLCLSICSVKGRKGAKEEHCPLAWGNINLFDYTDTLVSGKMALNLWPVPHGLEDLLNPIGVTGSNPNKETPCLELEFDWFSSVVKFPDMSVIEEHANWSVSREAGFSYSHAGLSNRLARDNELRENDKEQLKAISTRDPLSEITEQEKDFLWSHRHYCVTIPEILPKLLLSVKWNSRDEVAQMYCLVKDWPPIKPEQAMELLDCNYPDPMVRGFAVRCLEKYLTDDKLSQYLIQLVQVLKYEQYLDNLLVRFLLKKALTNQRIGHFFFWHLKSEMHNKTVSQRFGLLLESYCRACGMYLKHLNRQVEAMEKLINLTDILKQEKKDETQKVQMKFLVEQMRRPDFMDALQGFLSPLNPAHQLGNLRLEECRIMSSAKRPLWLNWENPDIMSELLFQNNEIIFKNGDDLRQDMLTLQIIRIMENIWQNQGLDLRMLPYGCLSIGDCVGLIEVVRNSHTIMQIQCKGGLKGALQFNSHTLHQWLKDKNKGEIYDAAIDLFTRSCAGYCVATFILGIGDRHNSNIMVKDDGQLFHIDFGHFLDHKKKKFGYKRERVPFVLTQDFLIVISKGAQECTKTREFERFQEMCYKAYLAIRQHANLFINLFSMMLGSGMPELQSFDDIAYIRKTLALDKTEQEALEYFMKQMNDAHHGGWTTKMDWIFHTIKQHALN
UniProt O00329, whole entry: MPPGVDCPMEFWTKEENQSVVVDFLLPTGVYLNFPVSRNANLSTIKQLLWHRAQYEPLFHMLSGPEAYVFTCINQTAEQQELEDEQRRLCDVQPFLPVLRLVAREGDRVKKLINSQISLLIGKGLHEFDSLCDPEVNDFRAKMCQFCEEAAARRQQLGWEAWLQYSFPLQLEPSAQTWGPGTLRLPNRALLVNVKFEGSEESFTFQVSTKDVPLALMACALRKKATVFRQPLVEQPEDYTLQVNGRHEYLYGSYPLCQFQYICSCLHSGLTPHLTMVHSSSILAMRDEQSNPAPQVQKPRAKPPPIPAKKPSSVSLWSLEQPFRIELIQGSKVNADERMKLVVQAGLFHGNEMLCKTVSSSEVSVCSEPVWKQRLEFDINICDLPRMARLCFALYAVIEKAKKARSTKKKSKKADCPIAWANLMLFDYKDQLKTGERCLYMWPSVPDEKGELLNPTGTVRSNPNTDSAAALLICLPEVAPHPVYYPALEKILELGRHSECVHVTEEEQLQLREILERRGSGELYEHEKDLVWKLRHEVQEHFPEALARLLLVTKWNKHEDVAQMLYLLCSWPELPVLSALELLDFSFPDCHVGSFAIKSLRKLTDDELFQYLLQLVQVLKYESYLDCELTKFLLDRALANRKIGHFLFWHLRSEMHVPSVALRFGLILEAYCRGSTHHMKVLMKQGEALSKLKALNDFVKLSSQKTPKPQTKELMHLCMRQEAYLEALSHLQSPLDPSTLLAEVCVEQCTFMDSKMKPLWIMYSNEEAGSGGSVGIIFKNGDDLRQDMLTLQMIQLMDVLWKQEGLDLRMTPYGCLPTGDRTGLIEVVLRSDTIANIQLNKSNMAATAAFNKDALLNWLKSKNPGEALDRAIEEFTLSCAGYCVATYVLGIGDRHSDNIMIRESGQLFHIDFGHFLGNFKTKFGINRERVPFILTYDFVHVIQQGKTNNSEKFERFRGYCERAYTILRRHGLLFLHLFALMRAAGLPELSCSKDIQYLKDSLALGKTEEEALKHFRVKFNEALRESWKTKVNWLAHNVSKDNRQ
UniProt P48736, whole entry: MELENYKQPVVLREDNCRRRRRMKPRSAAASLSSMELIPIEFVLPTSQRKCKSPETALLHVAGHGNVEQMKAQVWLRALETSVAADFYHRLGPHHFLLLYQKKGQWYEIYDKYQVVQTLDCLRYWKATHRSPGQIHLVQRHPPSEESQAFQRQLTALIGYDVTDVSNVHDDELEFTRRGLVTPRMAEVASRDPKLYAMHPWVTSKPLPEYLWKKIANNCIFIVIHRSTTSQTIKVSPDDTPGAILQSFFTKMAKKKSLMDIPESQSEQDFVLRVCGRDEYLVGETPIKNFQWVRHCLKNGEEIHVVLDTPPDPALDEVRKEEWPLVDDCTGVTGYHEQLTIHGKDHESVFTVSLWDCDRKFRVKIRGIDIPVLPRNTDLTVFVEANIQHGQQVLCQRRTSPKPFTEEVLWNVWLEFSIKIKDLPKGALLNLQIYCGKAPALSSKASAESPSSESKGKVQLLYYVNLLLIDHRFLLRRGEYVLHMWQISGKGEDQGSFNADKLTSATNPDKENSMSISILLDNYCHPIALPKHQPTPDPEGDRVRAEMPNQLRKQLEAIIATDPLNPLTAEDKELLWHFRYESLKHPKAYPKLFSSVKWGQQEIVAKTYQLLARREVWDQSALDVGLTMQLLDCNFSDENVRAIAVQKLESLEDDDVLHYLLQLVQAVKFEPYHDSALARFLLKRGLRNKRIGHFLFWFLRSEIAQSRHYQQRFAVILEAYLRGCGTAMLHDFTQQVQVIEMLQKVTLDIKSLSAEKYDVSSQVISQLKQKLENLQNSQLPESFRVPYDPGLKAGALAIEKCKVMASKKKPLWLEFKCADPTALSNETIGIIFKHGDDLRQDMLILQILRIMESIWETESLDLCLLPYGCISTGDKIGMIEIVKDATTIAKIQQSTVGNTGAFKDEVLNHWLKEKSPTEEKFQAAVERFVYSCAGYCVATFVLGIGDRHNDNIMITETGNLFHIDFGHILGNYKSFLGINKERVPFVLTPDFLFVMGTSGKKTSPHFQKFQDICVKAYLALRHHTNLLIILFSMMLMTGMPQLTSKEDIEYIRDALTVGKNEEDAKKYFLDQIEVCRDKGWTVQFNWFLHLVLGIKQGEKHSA
UniProt P27986, whole entry partner: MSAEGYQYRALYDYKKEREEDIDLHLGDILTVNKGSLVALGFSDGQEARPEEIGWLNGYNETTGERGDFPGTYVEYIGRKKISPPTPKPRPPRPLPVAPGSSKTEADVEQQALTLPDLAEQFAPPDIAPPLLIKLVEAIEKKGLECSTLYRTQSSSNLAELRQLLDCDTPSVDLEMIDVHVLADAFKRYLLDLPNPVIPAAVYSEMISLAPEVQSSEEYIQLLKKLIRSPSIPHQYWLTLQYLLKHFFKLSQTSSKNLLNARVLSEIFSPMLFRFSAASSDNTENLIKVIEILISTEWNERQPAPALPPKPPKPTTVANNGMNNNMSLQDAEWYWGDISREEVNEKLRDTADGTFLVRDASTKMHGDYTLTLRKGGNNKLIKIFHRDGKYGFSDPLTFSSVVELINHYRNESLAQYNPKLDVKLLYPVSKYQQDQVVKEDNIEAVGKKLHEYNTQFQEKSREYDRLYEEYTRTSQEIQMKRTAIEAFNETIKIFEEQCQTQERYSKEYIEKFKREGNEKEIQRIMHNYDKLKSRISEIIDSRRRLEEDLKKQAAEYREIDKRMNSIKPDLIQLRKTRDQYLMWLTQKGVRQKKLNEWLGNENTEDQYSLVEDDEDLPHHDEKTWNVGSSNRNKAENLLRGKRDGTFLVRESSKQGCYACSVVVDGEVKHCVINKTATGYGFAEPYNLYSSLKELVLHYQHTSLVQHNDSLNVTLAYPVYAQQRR
UniProt Q8WYR1, whole entry partner: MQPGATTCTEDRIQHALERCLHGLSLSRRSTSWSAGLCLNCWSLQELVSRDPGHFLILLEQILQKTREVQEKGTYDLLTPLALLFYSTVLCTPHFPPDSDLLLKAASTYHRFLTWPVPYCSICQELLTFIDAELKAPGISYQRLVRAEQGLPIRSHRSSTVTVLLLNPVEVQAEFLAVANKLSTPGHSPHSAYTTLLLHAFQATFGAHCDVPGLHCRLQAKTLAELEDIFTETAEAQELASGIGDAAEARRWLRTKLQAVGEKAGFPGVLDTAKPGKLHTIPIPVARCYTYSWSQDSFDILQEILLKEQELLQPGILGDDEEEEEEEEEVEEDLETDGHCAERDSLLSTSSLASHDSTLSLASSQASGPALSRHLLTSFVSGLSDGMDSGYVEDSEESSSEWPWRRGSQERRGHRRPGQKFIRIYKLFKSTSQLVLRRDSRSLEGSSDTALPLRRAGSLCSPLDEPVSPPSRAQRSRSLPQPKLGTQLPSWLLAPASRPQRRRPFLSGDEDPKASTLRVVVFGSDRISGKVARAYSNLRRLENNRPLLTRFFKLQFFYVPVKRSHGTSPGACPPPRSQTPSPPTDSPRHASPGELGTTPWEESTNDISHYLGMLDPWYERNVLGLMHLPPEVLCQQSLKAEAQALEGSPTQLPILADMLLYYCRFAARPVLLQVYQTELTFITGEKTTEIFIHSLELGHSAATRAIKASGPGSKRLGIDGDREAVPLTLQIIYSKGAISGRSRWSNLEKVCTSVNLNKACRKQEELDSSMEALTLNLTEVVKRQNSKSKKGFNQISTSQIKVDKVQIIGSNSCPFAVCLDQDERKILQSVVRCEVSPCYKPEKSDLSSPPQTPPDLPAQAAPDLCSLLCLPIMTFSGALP

Data on two compounds can be found in patent US9266878B2, “Phosphatidylinositol 3-kinase inhibitors” (Gilead Calistoga LLC, priority 2012, dated 2016).

Holding throughout (assay): Enzymatic activity of PI3K isoforms, TR-FRET assay (PIP3 formation)
One test deals with PI3Kβ (Homo sapiens (Human), UniProt P42338). Particulars: read-out: IC50-PIP-β, bound given in nM.
The next test has as its target PI3Kα (Homo sapiens (Human), UniProt P42336).
Another test addresses PI3Kδ (Homo sapiens (Human), UniProt O00329). Particulars: read-out: IC50-PIP-δ, bound given in nM.
In the next test the target is PI3Kγ (Homo sapiens (Human), UniProt P48736). The following applies: read-out: IC50-PIP-γ, bound given in nM.

As for `C[C@H](Nc1ncnc(N)c1C#Cc1ncccc1F)c1nc2cccc(Cl)c2c(=O)n1-c1cc(F)cc(F)c1`, the IC50 is less than 100 nM at PI3Kβ; greater than 1 µM at PI3Kα (read-out: IC50-PIP-α, bound given in uM); less than 100 nM on PI3Kδ.
Consider `COc1cccnc1C#Cc1c(N)ncnc1N[C@@H](C)c1nc2cccc(Cl)c2c(=O)n1-c1cc(F)cc(F)c1`, for which the half-maximal inhibitory concentration (IC50) at PI3Kβ was less than 100 nM; at PI3Kα (read-out: IC50-PIP-α, bound given in nM) it was less than 0.1 µM; on PI3Kγ, less than 100 nM; on PI3Kδ, less than 100 nM.
